Experimental data as given in patent US12281335B2, “Methods and compositions for delivery of viral vectors across the blood-brain barrier” (priority 2017, dated 2025).

Tested on: human transferrin binding to AAV8 virions
Assay: AAV8 competitive binding assay
Details: pre-incubation with AAV8, then human transferrin; pull down with transferrin antibody, qPCR
Method: AAV8 competitive binding assay. For THR competitive binding analysis, 10 ul of Protein G resin (Thermo, USA) per system was incubated with 1 ug of human transferrin antibody or goat IgG antibody control at 4° C. overnight. The next day, 1E+10 vg AAV8/luc were firstly incubated with human serum albumin (HSA) of physiological concentration, THR or PEPXT-1 control peptide at different dilutions or PBS on ice for 2 h, and then added the human transferrin at a 1:100 dilution of physiological concentration into the complex and incubated on ice for another 2 h. After that, the mixture was added to the complex of protein G resin and transferrin antibody and incubated at 4° C. overnight. Finally, the complex was stringently washed three times with cold DPBS. DNA from the complex was extracted and applied for qPCR to determine AAV genome copy number per cell using luc specific primers.
THR competed with the human transferrin binding to AAV8 virions. […] To investigate whether THR also binds to the same location of AAV8 virions as human serum proteins, we performed a competitive assay. […] The transferrin antibody was used to pull down transferrin bound AAV8 virions and AAV8 gene copy number was measured by qPCR. […]

HSA: human serum albumin
inhibition of transferrin binding to AAV8: blocked transferrin binding to AAV8
